Columns and labels:
GPR8 [1] = target: T1, GPR8 (Homo sapiens, UniProt P48146); test: Competition binding assay on membranes of CHO-K1 cells expressing GPR8; design: expressed in transfected cells; host or cells: CHO-K1 clone WTA11 (apoaequorin + Galpha16); conditions: [125I]-L8 as tracer
Procedure: (§1) In the experiments described in this section, iodinated L8 peptide was obtained using the chloramine T labeling method (Zentech, Belgium). Competition binding assays were performed as described (Kotani, M. et al.) on crude membrane fractions prepared from CHO—K1 cell lines expressing GPR7 or GPR8. Briefly, 1 to 10 μg of membrane proteins were incubated in binding buffer (50 mM HEPES pH 7.4, 5 mM MgCl2, 1 mM CaCl2, 0.5% protease-free BSA) containing 0.1 μM [125I]-L7 or [125I]-L8 radioligand for 90 min at 27° C. Bound tracer was separated by filtration through GF/B filters (Millipore) presoaked in 0.5% polyethylenimine. Filters were then counted by gamma scintillation counting. Results were normalized for total binding in the absence of competitor (100%) and non-specific binding (0%) in the presence of a 100-fold excess of unlabelled ligand, and were analyzed by nonlinear regression, using a single-site competition model (Graph-Pad Prism Software).

Sequences of proteins named here, by UniProt entry; tags and fusion partners are left off. A change or cut given only in a name is not applied to a line headed by its entry.
UniProt P48146: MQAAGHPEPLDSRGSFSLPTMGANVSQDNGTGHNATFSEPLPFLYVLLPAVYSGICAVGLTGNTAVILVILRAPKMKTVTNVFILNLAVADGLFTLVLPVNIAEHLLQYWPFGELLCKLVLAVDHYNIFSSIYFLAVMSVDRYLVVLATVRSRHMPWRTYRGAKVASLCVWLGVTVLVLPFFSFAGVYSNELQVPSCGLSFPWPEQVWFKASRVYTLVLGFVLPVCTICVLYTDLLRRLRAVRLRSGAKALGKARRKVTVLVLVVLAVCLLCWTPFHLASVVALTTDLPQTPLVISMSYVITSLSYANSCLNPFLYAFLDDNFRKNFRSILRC

GPR8 [2] = target: T1, GPR8; test: cAMP accumulation in CHO-K1 cells expressing GPR8, forskolin-stimulated; format: cell-based; design: expressed in transfected cells; host or cells: CHO-K1; conditions: in the presence of forskolin 5 μM; mean±S.E.M.; read-out: IC50, inhibition of the level of cAMP, CHO-K1-GPR8
Procedure: (§2) In the experiments in this section, the cyclic AMP assays comprised CHO—K1 cell lines stably expressing GPR7 or GPR8, said cells cultured in Petri dishes at 37° C. in Ham's F-12 medium, containing or not 100 ng/ml pertussis toxin (PTX). […] Cells were further preincubated for 15 min in 1 mM KRH-IBMX buffer and incubated with various concentrations of agonists for 20 min at 37° C., with or without 5 μM forskolin. Incubations were terminated by the addition of lysis buffer (CS1000 kit, Applied Biosystem, USA). The cell lysate was homogenized in the presence of cAMP-AP conjugate and an anti-cAMP-antibody, and cAMP content was quantified by ELISA (CS1000 kit, Applied Biosystem, USA).

GPR8 [3] = target: T1, GPR8; test: Aequorin-based functional assay, WTA11 cells expressing GPR8; format: cell-based; design: expressed in transfected cells; host or cells: CHO-K1 clone WTA11 (apoaequorin + Galpha16); conditions: mean±S.E.M., read-out: EC50, agonist of GPR8, aequorin-based functional assay
Procedure: (§3) In the experiments described in this section, the aequorin assay measured functional responses by recording the luminescence of aequorin in GPR7- and GPR8-expressing cells following addition of (potential) agonists, as previously described (Kotani, M. et al.). In brief, cells were collected from plates with PBS containing 5 mM EDTA, pelleted, resuspended at 5×10^6 cells/ml in DMEM-F12 medium containing 0.1% BSA, incubated with 5 μM coelenterazine H (Molecular Probes, Eugene, Oreg.) for 4 h at room temperature, and diluted in DMEM-F12 medium at a concentration of 5×10^5 cells/ml. Cells where then mixed with the ligands, and the light emission was recorded over 30 s using a Microlumat™ luminometer (Perkin Elmer, Norwalk, Conn.).

GPR7 [4] = target: T2, GPR7 (Homo sapiens, UniProt P48145); test: cAMP accumulation in CHO-K1 cells expressing GPR7, forskolin-stimulated; format: cell-based; design: expressed in transfected cells; host or cells: CHO-K1; conditions: in the presence of forskolin 5 μM; mean±S.E.M.; read-out: IC50, inhibition of the level of cAMP, CHO-K1-GPR7
T2 sequence (P48145 1-328): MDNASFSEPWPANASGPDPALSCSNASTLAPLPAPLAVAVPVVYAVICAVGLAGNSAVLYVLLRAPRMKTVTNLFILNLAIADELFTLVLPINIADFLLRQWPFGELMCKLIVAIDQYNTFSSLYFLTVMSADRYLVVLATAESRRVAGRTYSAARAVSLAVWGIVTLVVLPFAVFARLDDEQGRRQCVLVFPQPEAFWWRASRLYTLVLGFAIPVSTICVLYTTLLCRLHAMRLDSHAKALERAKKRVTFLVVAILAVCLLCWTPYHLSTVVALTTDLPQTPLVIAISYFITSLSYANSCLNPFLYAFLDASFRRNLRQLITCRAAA
Procedure: as §2

GPR7 [5] = target: T2, GPR7; test: Competition binding assay on membranes of CHO-K1 cells expressing GPR7; design: expressed in transfected cells; host or cells: CHO-K1 clone WTA11 (mitochondrial apoaequorin + Galpha16); conditions: [125I]-L7 as tracer
Procedure: as §1

GPR7 [6] = target: T2, GPR7; test: Aequorin-based functional assay, WTA11 cells expressing GPR7; format: cell-based; design: expressed in transfected cells; host or cells: CHO-K1 clone WTA11 (mitochondrial apoaequorin + Galpha16); conditions: mean±S.E.M., read-out: EC50, agonist of GPR7, aequorin-based functional assay
Procedure: CHO—K1 cells (ATCC CRL-9618 (Bethesda, Md., USA)) were previously transfected with a plasmid encoding mitochondrial apoaequorin and Gα16. A clone obtained by limit dilution, called WTA11, was grown in Nutrient Mixture HAM's F12 medium supplemented with 10% fetal calf serum, 250 μg/ml zeocin, 100 units/ml penicillin and 100 μg/ml streptomycin. A bicistronic plasmid encoding the human GPR7 was transfected into WTA11 CHO—K1 cells, using Fugene 6 (Roche Diagnostics, Mannheim, Germany). Individual clones were selected two days after transfection with 400 μg/ml neomycin and GPR7-positive clones were confirmed by northern blotting, RT-PCR and sequencing.
Functional responses were analysed by recording the luminescence of aequorin following the addition of the ligand. In brief, cells were collected from plates with PBS containing 5 mM EDTA, pelleted, and resuspended at 10^7 cells/ml in DMEM-F12 medium and incubated with 5 μM coelenterainze H (Molecular Porbes) for 4 h at room temperature. Cells were then washed in DMEM-F12 medium and resuspended at a concentration of 2×10^6 cells/ml. Cells where then mixed with the ligand, and the light emission was recorded over 60 s using a Microlumat™ luminometer (Perkin Elmer). Results are expressed as relative light units (RLU) (FIG. 5).
as §3

GPR7 [7] = target: T2, GPR7; test: cAMP accumulation in CHO-WTA11 cells stably expressing the human GPR7; format: cell-based; design: expressed in transfected cells; host or cells: CHO-K1 clone WTA11 (mitochondrial apoaequorin + Galpha16); conditions: comparison in words
Procedure: L7 and L8 were tested on CHO—WTA11 cells stably expressing the human GPR7 for their ability to inhibit the activity of the adenylate cyclase stimulated with forskolin. EC50 were similar for both ligands (FIG. 7). There was no effect of L7 or L8 in cells coexpressing another receptor and used as negative control.

GPR7 [8] = target: T2, GPR7; test: Phosphoinositide (IP) accumulation in Cos-7 cells transfected with GPR7 and Gqi5 chimaeric G-protein; format: cell-based; design: expressed in transfected cells; host or cells: CHO-K1; conditions: Cos-7 cells with GPR7 and Gqi5; data not shown
Procedure: In the experiments in this section, the phosphoinositide accumulation assays comprised Cos-7 cells expressing GPR7 or GPR8, said cells labeled for 12 hours with 3 μCi/ml [3H] inositol in inositol-free DMEM containing 5% FBS. Cells were washed two times with Krebs-Ringer Hepes (KRH) buffer (10 mM Hepes pH 7.4, 146 mM NaCl, 4.2 mM KCl, 0.5 mM MgCl2, 1 mM CaCl2, 55 mM glucose) prior to the incubation with agonists at 37° C. for 30 min in KRH buffer containing 9.4 mM LiCl. The incubation was stopped by replacing the incubation medium with 1 ml of an ice-cold 5% perchloric acid solution. The medium was further neutralized with a 75 mM Hepes, 1.5 M KOH solution. The total inositol phosphate (IP) content was then extracted, and purified on Dowex columns as described (26). Total radioactivity remaining in the membrane fraction was counted after solubilization in 10% Triton, 0.1 N NaOH and used as standard for each well. Results were expressed as the radioactivity associated to IP over the total radioactivity present in membranes.

IC50 (GPR8 [1]) [nM]	IC50 (GPR8 [2]) [nM]	EC50 (GPR8 [3]) [nM]	IC50 (GPR7 [4]) [nM]	IC50 (GPR7 [5]) [nM]	EC50 (GPR7 [6]) [nM]	EC50, inhibition of adenylate cyclase stimulated with forskolin (GPR7 [7])	EC50 (GPR7 [8]) [nM]	Structure (SMILES)
0.98 ± 0.28	12.5 ± 2.3	91 ± 17	0.14 ± 0.04	0.33 ± 0.05	50 ± 11	–	–	CC(C)C[C@H](NC(=O)CNC(=O)[C@H](C)NC(=O)[C@H](C)NC(=O)[C@H](CCCNC(=N)N)NC(=O)CNC(=O)[C@@H](NC(=O)[C@H](CO)NC(=O)[C@H](Cc1ccc(O)cc1)NC(=O)[C@H](CO)NC(=O)[C@H](CO)NC(=O)[C@H](Cc1c[nH]cn1)NC(=O)CNC(=O)[C@H](C)NC(=O)[C@H](C)NC(=O)[C@@H]1CCCN1C(=O)[C@H](CCCCN)NC(=O)[C@H](Cc1ccc(O)cc1)NC(=O)[C@@H](N)Cc1c[nH]c2ccccc12)C(C)C)C(=O)N[C@@H](CC(C)C)C(=O)N[C@@H](CO)C(=O)NCC(=O)N[C@@H](CC(C)C)C(=O)N[C@@H](CCCNC(=N)N)C(=O)N[C@@H](CCCNC(=N)N)C(=O)N[C@@H](CO)C(=O)N1CCC[C@H]1C(=O)N[C@@H](Cc1ccc(O)cc1)C(=O)N[C@@H](C)C(=O)O [L7C]
–	–	–	–	–	–	similar	–	CSCC[C@H](NC(=O)[C@H](CC(C)C)NC(=O)[C@H](CC(C)C)NC(=O)CNC(=O)[C@H](C)NC(=O)[C@H](C)NC(=O)[C@H](CCCNC(=N)N)NC(=O)CNC(=O)[C@@H](NC(=O)[C@@H](NC(=O)[C@H](Cc1c[nH]cn1)NC(=O)[C@H](Cc1ccc(O)cc1)NC(=O)[C@H](CCCNC(=N)N)NC(=O)[C@@H]1CCCN1C(=O)[C@H](CO)NC(=O)[C@H](C)NC(=O)[C@@H](NC(=O)[C@H](Cc1c[nH]cn1)NC(=O)[C@H](CCCCN)NC(=O)[C@H](Cc1ccc(O)cc1)NC(=O)[C@@H](N)Cc1c[nH]c2ccccc12)C(C)C)[C@@H](C)O)C(C)C)C(=O)NCC(=O)N[C@@H](CC(C)C)C(=O)O [L8, reference compound]
0.43 ± 0.15	9.8 ± 2	77 ± 7	1.99 ± 0.57	0.96 ± 0.16	241 ± 10	–	–	CSCC[C@H](NC(=O)[C@H](CC(C)C)NC(=O)[C@H](CC(C)C)NC(=O)CNC(=O)[C@H](C)NC(=O)[C@H](C)NC(=O)[C@H](CCCNC(=N)N)NC(=O)CNC(=O)[C@@H](NC(=O)[C@@H](NC(=O)[C@H](Cc1cnc[nH]1)NC(=O)[C@H](Cc1ccc(O)cc1)NC(=O)[C@H](CCCNC(=N)N)NC(=O)[C@@H]1CCCN1C(=O)[C@H](CO)NC(=O)[C@H](C)NC(=O)[C@@H](NC(=O)[C@H](Cc1cnc[nH]1)NC(=O)[C@H](CCCCN)NC(=O)[C@H](Cc1ccc(O)cc1)NC(=O)[C@@H](N)Cc1c[nH]c2ccccc12)C(C)C)[C@@H](C)O)C(C)C)C(=O)NCC(=O)N[C@@H](CC(C)C)C(=O)N[C@@H](CCCNC(=N)N)C(=O)N[C@@H](CCCNC(=N)N)C(=O)N[C@@H](CO)C(=O)N1CCC[C@H]1C(=O)N[C@@H](Cc1ccc(O)cc1)C(=O)N[C@@H](CC(C)C)C(=O)N[C@@H](Cc1c[nH]c2ccccc12)C(=O)O [L8C]
4.01 ± 0.13	20.9 ± 2.5	121 ± 16	0.36 ± 0.05	1.95 ± 0.27	126 ± 21	similar	8.2	CC(C)C[C@H](NC(=O)CNC(=O)[C@H](CO)NC(=O)[C@H](CC(C)C)NC(=O)[C@H](CC(C)C)NC(=O)CNC(=O)[C@H](C)NC(=O)[C@H](C)NC(=O)[C@H](CCCNC(=N)N)NC(=O)CNC(=O)[C@@H](NC(=O)[C@H](CO)NC(=O)[C@H](Cc1ccc(O)cc1)NC(=O)[C@H](CO)NC(=O)[C@H](CO)NC(=O)[C@H](Cc1c[nH]cn1)NC(=O)CNC(=O)[C@H](C)NC(=O)[C@H](C)NC(=O)[C@@H]1CCCN1C(=O)[C@H](CCCCN)NC(=O)[C@H](Cc1ccc(O)cc1)NC(=O)[C@@H](N)Cc1c[nH]c2ccccc12)C(C)C)C(=O)O [L7]

Source: US20030232756A1, “Ligands for G protein coupled receptor GPR7 and GPR8 and uses thereof” (Euroscreen, S.A., priority 2002, published 2003)
